High-throughput results: PubChem BioAssay, National Center for Advancing Translational Sciences (NCATS)
Sfp inh = Sfp phosphopantetheinyl transferase inhibition; Q9F4F7; Biochemical Sfp PPTase activity, qHTS; Potency, µM, for the others: max response, negative = inhibition, usual class: inhibitors; hit rate 3.5% among 310,000; active = well fitted inhibition curve with a large enough effect; inconclusive = small, poorly fitted or top-dose-only effect, or another doubt; inactive = no such curve, though single readings can be large or run the other way;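 also: the enzyme is Sfp with the accession as filed and its product quenches rhodamine fluorescence; potency is read from the fitted curve at half-maximal effect; 0% = enzyme reaction without inhibitor and -100% = no enzyme wells; top concentration of the series not given in the record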
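Buffer: 50 mM Hepes-Na pH 7.6, 10 mM MgCl2, 0.01% Nonidet P-40, 0.01% BSA. Enzyme 15 nM, pre-exposed to compound 15 min; substrates then added and fluorescence change tracked over 30 min.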
Lamin A splicing = LMNA splicing modulation; HeLa LMNA splicing GFP/RFP minigene ratio, 48 h; Potency, µM (top dose mostly 46.1 µM), for the others: top-dose ratio change, negative = inhibition, most hits filed as inhibitors; 200,000 tested, 0.01% active; AID 1487; active = well fitted inhibition curve with a large enough effect in the signal ratio, with a control signal flat, not every such curve was filed as active; inconclusive = small, poorly fitted or top-dose-only effect, or effect the other way, or a change in a side signal; the % refers to the signal ratio; note: potency is the fitted concentration of half-maximal effect; % is set by controls: 0 for no effect and ±100 for the full control effect
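S3 HeLa stable clones carrying a lamin A-EGFP splicing minigene plus DsRed2 were seeded at 600 cells/well in Opti-MEM with 2% FBS, pin-dosed and incubated 48 h at 37°C. Acumen cytometry (488 nm) gave the GFP/RFP total-intensity ratio.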
G9a inh = blocks human histone lysine methyltransferase G9a | Potency, µM (titrated, usually from 102 µM), inactives show at the highest dose activity, negative = inhibition, hits mostly inhibitors | G9a H3K9 monomethylation, AlphaScreen, 2 h | Q96KQ7 | 350,000 tested, 8.8% active | AID 504332; note: potency is the fitted concentration of half-maximal effect; % is set by controls: 0 for no effect and ±100 for the full control effect; nearly all actives have a fitted effect of over 75% in size
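AlphaScreen detection with an anti-monomethyl H3K9 antibody quantified product after a 2 h room-temperature reaction containing 500 nM biotinylated H3K9 peptide, 20 µM SAM and 20 nM enzyme, which had been preincubated 15 min with compound.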
ALDH1A1 block = blocks purified human ALDH1A1 activity; P00352; 220,000 tested, 7.3% active; Purified ALDH1A1, NADH fluorescence, propionaldehyde substrate; Potency, µM (titrated, usually from 75.3 µM), without a hit: top-dose activity, negative = inhibition, hits mostly inhibitors; active = well fitted inhibition curve with a large enough effect, not every such curve was filed as active; inconclusive = small, poorly fitted or top-dose-only effect, or another doubt; inactive = no such curve, though single readings can be large or run the other way;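 note: potency is the fitted concentration of half-maximal effect; plate controls were no enzyme wells and a reference inhibitor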
miR-21 reporter = raises the signal of a miR-21 reporter | HeLa miR-21 FLuc reporter, luciferase, 48 h | Potency, µM (doses to about 38.3 µM), for the others: at the highest dose reporter change, positive = more light | 340,000 tested, under 10 active | AID 2288; active = well fitted rising curve with a large enough effect; inconclusive = small, poorly fitted or top-dose-only effect; inactive = no such curve, though single readings can be large or run the other way;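 also: % of control where 0% means no effect; miR-21 action dims this reporter so a rising signal means less miR-21 action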
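HeLa miR-21-FLuc reporter line, endogenous miR-21; 2000 cells/well in DMEM/10% FBS; compound titration up to ~40uM final, 48 h, 37 degree Celsius; luciferase detection reagent, 15 min lysis, CCD luminescence.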
KDM4E inh = JMJD2E (human) inhibition; B2RXH2; JMJD2E catalytic domain, FDH-coupled NADH fluorescence (FDH is formaldehyde dehydrogenase); Potency, µM (titrated, usually from 57.1 µM), without a hit: at the top dose activity change, negative = inhibition, usual class: inhibitors; 230,000 tested, 1.6% active; active = well fitted inhibition curve with a large enough effect, not every such curve was filed as active; inconclusive = small, poorly fitted or top-dose-only effect, or another doubt; inactive = no such curve, though single readings can be large or run the other way;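 note: potency is the fitted concentration of half-maximal effect; 0% = wells with enzyme and -100% = buffer wells without enzyme; nearly all actives have a fitted effect of over 50% in size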
The depositor's hits bear a star; ? = inconclusive; / = not tested or not shown; [ ] = remark or other dose. Most compounds without a hit are left out; they make up all but 13% or so of the library. Unless noted, calls come from the whole dose curve; as a rule, active = well fitted curve in the direction sought with a large enough effect; inconclusive = small, poorly fitted or top-dose-only effect, or another doubt; inactive = no such curve, though single readings can be large; an effect the other way counts as inactive or inconclusive.

Assay codes: A = Sfp inh; B = Lamin A splicing; C = G9a inh; D = ALDH1A1 block; E = miR-21 reporter; F = KDM4E inh
#1 Cc1cccn2c(=O)c(C=O)c(Sc3ncccn3)nc12
  A = 11%	B = ?	C = 40µM*	D = -11%	E = -4%	F = -10%

#2 c1ccc2c3c([nH]c2c1)C(C1CCCCC1)N(Cc1ncc[nH]1)CC3 (stereo not drawn)
  A = -1%	B = /	C = 45µM*	D = -4%	E = 0%	F = -21%

#3 COc1ccccc1CN1CCN(C(CC(C)C)c2nnnn2Cc2cccs2)CC1 (stereo not drawn)
  A = 89µM*	B = -7%	C = ?	D = -14%	E = 5%	F = -8%

#4 CCC(c1nnnn1Cc1ccccc1)N1CCN(c2ccc(OC)cc2)CC1 (stereo not drawn)
  A = -3%	B = 13%[46 µM]	C = 13µM*	D = 12%	E = -3%	F = 4%

#5 CCCC(c1nnnn1Cc1cccs1)N1CCN(c2ccc(OC)cc2)CC1 (stereo not drawn)
  A = -2%	B = ?	C = 18µM*	D = -10%	E = 0%	F = 4%

#6 CCCC(c1nnnn1CC1CCCO1)N1CCN(c2ccccc2)CC1 (stereo not drawn)
  A = -1%	B = 3%[46 µM]	C = 56µM*	D = -3%	E = -1%	F = 2%

#7 CCCC(c1nnnn1Cc1cccs1)N1CCN(C)CC1 (stereo not drawn)
  A = -10%	B = 3%[46 µM]	C = /	D = 3%	E = 3%	F = -14%

#8 CCC(c1nnnn1Cc1ccc(OC)cc1)N1CCN(c2ccc(OC)cc2)CC1 (stereo not drawn)
  A = ?	B = ?	C = /	D = -15%	E = -4%	F = ?

#9 O=C(COC(=O)c1ccc[n+]([O-])c1)Nc1ccc(Cl)cc1[N+](=O)[O-]
  A = /	B = /	C = 22%[2.33 µM]	D = /	E = /	F = /

#10 CCOc1ccccc1C(=O)Nc1ccc(S(=O)(=O)Nc2onc(C)c2C)cc1
  A = /	B = /	C = -6%[59 µM]	D = /	E = -24%	F = /

#11 CCOC(=O)C1=C(COC(=O)c2ccc(Cl)cc2[N+](=O)[O-])NC(=O)NC1C (stereo not drawn)
  A = /	B = /	C = -47%	D = /	E = /	F = /

#12 COc1ccc(NC(C)=O)cc1NC(=O)CSc1nnc(C2CCCCC2)n1N
  A = -7%	B = /	C = /	D = /	E = 2%	F = /

#13 COc1ccc(NC(=O)CSc2nnc(-c3cccs3)n2N)c(OC)c1
  A = /	B = /	C = 18µM*	D = /	E = /	F = /

#14 COc1ccc(Cl)cc1NC(=O)CSc1nnc(C2CC2)n1N
  A = /	B = /	C = 79µM*	D = /	E = /	F = /

#15 COCCn1c(CNc2ccc(F)cc2)nnc1SCC(=O)Nc1ccc(OC)cc1OC
  A = -5%	B = ?	C = -7%[59 µM]	D = 13µM*	E = 6%	F = -3%

Pulled one by one from above:
Assay codes: A = Sfp inh; B = Lamin A splicing; C = G9a inh; D = ALDH1A1 block; E = miR-21 reporter; F = KDM4E inh
#8 CCC(c1nnnn1Cc1ccc(OC)cc1)N1CCN(c2ccc(OC)cc2)CC1 (stereo not drawn)
  A = ?	B = ?	C = /	D = -15%	E = -4%	F = ?

#4 CCC(c1nnnn1Cc1ccccc1)N1CCN(c2ccc(OC)cc2)CC1 (stereo not drawn)
  A = -3%	B = 13%[46 µM]	C = 13µM*	D = 12%	E = -3%	F = 4%

#15 COCCn1c(CNc2ccc(F)cc2)nnc1SCC(=O)Nc1ccc(OC)cc1OC
  A = -5%	B = ?	C = -7%[59 µM]	D = 13µM*	E = 6%	F = -3%

(cont.)
Assay codes: A = Sfp inh; B = Lamin A splicing; C = G9a inh; D = ALDH1A1 block; E = miR-21 reporter; F = KDM4E inh
#16 O=C(COC(=O)c1ccc(S(=O)(=O)N2CCCCC2)cc1)NCc1ccc(F)cc1
  A = /	B = /	C = -6%	D = /	E = /	F = /

#17 CCCC[C@@H]1C[C@H]1[C@@H](NP(=O)(c1ccccc1)c1ccccc1)c1ccccc1OC
  A = -19%	B = /	C = /	D = 8%	E = /	F = 15%

#18 Cc1ccc(Nc2nc(N)nc(CN3CCN(Cc4ccc5c(c4)OCO5)CC3)n2)cc1Cl
  A = 3%	B = ?	C = 45µM*	D = ?	E = 14%	F = -8%

#19 CCOc1nc(Nc2ccc(OC)c(Cl)c2)nc(N2CCN(c3ccc(OC)cc3)CC2)n1
  A = 1%	B = 16%	C = 11µM*	D = -3%	E = 3%	F = -5%

#20 Cc1ccc(Nc2nc(N)nc(CN3CCN(Cc4ccc5c(c4)OCO5)CC3)n2)cc1C
  A = 6%	B = 13%[46 µM]	C = /	D = 7.9µM*	E = -1%	F = 5%

#21 Cc1ccc(Nc2nc(N)nc(CN3CCN(Cc4ccc5c(c4)OCO5)CC3)n2)cc1
  A = 2%	B = ?	C = 12%[12.7 µM]	D = ?	E = 5%	F = -1%

#22 COc1ccc(N2CCN(Cc3nc(N)nc(Nc4ccc(C)c(Cl)c4)n3)CC2)cc1
  A = -3%	B = -12%	C = 1.6µM*	D = ?	E = 28%	F = -2%

#23 CCC/C=C(\CCC)C(NC(=O)Oc1ccc(F)cc1)c1ccc(C(=O)OC)cc1 (stereo not drawn)
  A = 14%	B = /	C = /	D = 5%	E = /	F = 9%

#24 Cc1ccc(COn2c(-c3ccc(Cl)cc3Cl)nc3ncccc32)cc1
  A = -10%	B = -15%	C = ?	D = 18µM*	E = 4%	F = 4%

#25 C=CCN1C(=O)c2ccccc2C1(O)Cc1ccccc1 (stereo not drawn)
  A = 2%	B = /	C = -1%	D = /	E = -2%	F = /

#26 O=C1c2ccccc2C(O)(Cc2ccccc2)N1C1CCCCC1 (stereo not drawn)
  A = -5%	B = 2%	C = ?	D = 22µM*	E = -13%	F = 0%

#27 CC(C)CN1C(=O)c2ccccc2C1(O)Cc1ccccc1 (stereo not drawn)
  A = ?	B = -3%	C = 8.9µM*	D = ?	E = 9%	F = 1%

#28 CCOC(=O)C1(CCOc2ccccc2)CCN(CC(O)CO)CC1 (stereo not drawn)
  A = 16%	B = /	C = -15%	D = /	E = 2%	F = /

#29 Nn1c(SCCOc2ccccc2)nnc1-c1cccnc1
  A = 2%	B = -5%	C = 50µM*	D = ?	E = -17%	F = -16%

#30 Nn1c(SC/C=C/c2ccccc2)nnc1-c1ccccn1
  A = -23%	B = 8%	C = 28µM*	D = -4%	E = -8%	F = 1%

Next part
Assay codes: A = Sfp inh; B = Lamin A splicing; C = G9a inh; D = ALDH1A1 block; E = miR-21 reporter; F = KDM4E inh
#31 Cc1ccc(OCCSc2nnc(-c3ccncc3)n2C)cc1
  A = 10%	B = -2%	C = 40µM*	D = 1%	E = -2%	F = -3%

#32 Nn1c(SCCOc2ccc(Cl)cc2)nnc1-c1cccnc1
  A = 6%	B = -1%[46 µM]	C = ?	D = 2%	E = -1%	F = -5%

#33 Cc1cccc(CSc2nnc(-c3ccccn3)n2N)c1
  A = -15%	B = -7%	C = 14µM*	D = -8%	E = -19%	F = -3%

#34 Cn1c(SCCOc2cccc(Cl)c2)nnc1-c1ccncc1
  A = 7%	B = 3%	C = -6%	D = -18%	E = -16%	F = -4%

#35 CCOc1ccc(C2C(C(=O)Nc3ccccc3OC)=C(C)Nc3c(C(=O)Nc4cccc(C)c4)cnn32)cc1 (stereo not drawn)
  A = /	B = 27%[46 µM]	C = -10%[59 µM]	D = /	E = 13%	F = /

#36 COc1ccc(CNC(=O)CCS(=O)(=O)c2cc3c(cc2Cl)NC(=O)CO3)cc1
  A = 10%	B = /	C = -3%[59 µM]	D = /	E = 2%	F = /

#37 O=C(COC(=O)CNC(=O)C1CCCCC1)Nc1cc(C(F)(F)F)ccc1Cl
  A = /	B = /	C = -1%[0.501 µM]	D = /	E = /	F = /

#38 Nn1c(SC/C=C/c2ccccc2)nnc1-c1cccnc1
  A = -6%	B = 11%	C = -71%[12.7 µM]	D = 13µM*	E = 8%	F = -8%

#39 COc1ccc(C(=O)c2c(C(F)(F)F)oc3c2C(=O)c2ccccc2C3=O)cc1
  A = -1%	B = ?	C = 7.9µM*	D = -7%	E = 7%	F = -1%

#40 COc1ccc(C(=O)c2coc(-c3ccccc3C(=O)O)c2C(=O)O)cc1
  A = 8%	B = -5%	C = 14%[59 µM]	D = 5%	E = -28%	F = -1%

#41 Brc1cccc(-c2nn(-c3ccccc3)c3c2cnc2cc4c(cc23)OCO4)c1
  A = /	B = /	C = -6%[59 µM]	D = /	E = -1%	F = /

#42 N[C@H](CSSC[C@@H](N)C(=O)O)C(=O)O
  A = 23%	B = /	C = /	D = /	E = /	F = /

#43 O=C(N=Nc1ccc(NOC(=O)c2ccccc2Br)cc1)c1ccccc1O
  A = 79µM*	B = ?	C = 25µM*	D = 22µM*	E = -11%	F = ?

#44 CCOCCCNC(=O)c1cc2c(s1)-c1ccccc1SC2
  A = 79µM*	B = /	C = 10µM*	D = /	E = -29%	F = /

#45 CCCCCCCCCCCCCCCCn1cc[n+](C)c1
  A = 22µM*	B = /	C = -11%	D = 3%	E = ?	F = 6%

#46 Cc1cc(C(=O)Nc2nc3ccc(Cl)cc3s2)nn1C
  A = 9%	B = /	C = -41%	D = /	E = -62%	F = ?

#47 NNc1nc2ccc(Cl)cc2s1
  A = -22%	B = ?	C = 56µM*	D = 35µM*	E = -39%	F = ?
